{"source": "patent US20070049514A1", "about": "“Resonance modulator for diagnosis and therapy” (priority 2003, published 2007)", "system": "T-lymphocytes (CD markers)", "test": "A-007 0.25% gel intravaginally, T-cell profile (tissue/blood)", "assay_type": "in vivo, Humans", "details": "2 grams of 0.25% gel per day for 5 days"}
{"compound": "O=[N+]([O-])c1ccc(NN=C(c2ccc(O)cc2)c2ccc(O)cc2)c([N+](=O)[O-])c1", "note": "[Compound A-007, 4,4′-dihydroxybenzophenone-2,4-dinitrophenylhydrazone]", "values": [{"measurement": "staining for CD45RO+ lymphocytes (activated) in HPV infected cervical epithelium", "result": "becomes very intense"}]}
